# Apparent affinities of Ab-14 variants for a coronavirus HR2 peptide

Antigen: PDVDLGDISGINAS, a 14-residue peptide of the SARS-CoV-2 spike HR2 region.

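These sequences belong to a second round, designed from the earlier measurements on random variants of the parent. Group labels follow the data file (Ctrl: baseline library sampled from a position-specific scoring matrix, with some repeated check sequences; Rand: our label for a block that the file lists under HC and that is probably the random mutants of the ten best first-round binders; GP: Gaussian process model; GPLM: also part of the Gaussian process libraries; HC: hill climbing; Gen: genetic algorithm; Gibbs: Gibbs sampling; a sequence that several methods proposed may carry one label only). Affinity was read by AlphaSeq, a pooled yeast mating assay with surface-displayed partners. Binding brings cells together so that they mate, and sequencing counts the barcode pairs among the diploids. A regression on co-assayed BCL2-family reference pairs converts the normalised counts of each replicate to an apparent Kd. Mating was done six times.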

Parent scFv Ab-14: VH joined to VL by a 15-residue (Gly4Ser)3 linker. Changes lie in the heavy chain CDRs alone.
VH: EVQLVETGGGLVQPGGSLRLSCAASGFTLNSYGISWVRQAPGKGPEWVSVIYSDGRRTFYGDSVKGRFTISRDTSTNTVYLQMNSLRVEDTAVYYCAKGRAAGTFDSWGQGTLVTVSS
VL: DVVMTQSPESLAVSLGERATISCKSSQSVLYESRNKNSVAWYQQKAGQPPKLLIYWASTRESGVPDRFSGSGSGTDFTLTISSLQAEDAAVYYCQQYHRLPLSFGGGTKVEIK

Changes read parent residue, position, new residue, counted from the first residue of the VH shown.
Variants here have at most six changes.
The Kd shown is the geometric mean over detected replicates; a lower Kd is a better binder.
An entry "no signal" has no value in the source: the pair was not observed among the diploids in any replicate. This suggests poor binding but is not conclusive.
Values of this round are not directly comparable with the first-round values of the same sequences.

With T28Q S31E R100F S107L [GP_HC] the result was 9.8 nM (1 of 6 replicates; controls 0 of 18). The variant F27R K65R [Ctrl] gave no signal (0 of 6 replicates; controls 0 of 18). With S31E G61S T104C [GPLM_HC] the result was 80 nM (4 of 6 replicates; controls 0 of 18). The variant T28H F59A R100Q [GPLM_Gibbs] showed 18 nM (4 of 6 replicates; controls 0 of 18). The variant T28E A101Q S107D [GP_Gibbs] showed 9.4 nM (5 of 6 replicates; controls 0 of 18). For S31D F59Q G61I F105R [Rand], the assay gave no signal (0 of 6 replicates; controls 0 of 18). With S31D R56Y F59G G61L D106I [Ctrl] the result was no signal (0 of 6 replicates; controls 0 of 18). With T28S S63Q R100Q [GPLM_Gen] the result was 20 nM (6 of 6 replicates; controls 0 of 18).

For T28D Y52M T104W D106N [Rand], the assay gave no signal (0 of 6 replicates; controls 0 of 18). With T28D A101T T104R [GPLM_HC] the result was no signal (0 of 6 replicates; controls 0 of 18). The variant R56M S63N A101T [GP_Gibbs] gave 16 nM (6 of 6 replicates; controls 0 of 18). With T28S S31E S107E [GPLM_Gen] the result was 13 nM (6 of 6 replicates; controls 0 of 18). The variant T28Q S31E G61D [GP_HC] showed 1.9 nM (6 of 6 replicates; controls 0 of 18). With T28Q S31E G61A S107T [GP_Gibbs] the result was 13 pM (4 of 6 replicates; controls 1 of 18). The variant S31R R100Q A101L [GPLM_HC] showed no signal (0 of 6 replicates; controls 0 of 18). With T28N S63Q R100Q A101T [GP_Gen] the result was 16 nM (6 of 6 replicates; controls 0 of 18).

The variant S31D G61A D106W [GPLM_HC] gave no signal (0 of 6 replicates; controls 0 of 18). The variant T28N G61V S63P R100N [GP_Gibbs] showed 970 nM (4 of 6 replicates; controls 0 of 18). The variant T28D R56K A101T S107E [GP_Gen] gave 1.3 nM (6 of 6 replicates; controls 1 of 18). The variant T28E S31N R100K A101T [GP_Gen] gave no signal (0 of 6 replicates; controls 0 of 18). The variant G26K I51D [Ctrl] gave no signal (0 of 6 replicates; controls 0 of 18). With N30E G61L [Ctrl] the result was 6.0 nM (5 of 6 replicates; controls 0 of 18). For N30E S53A R100W [GPLM_Gen], the assay gave 14 nM (5 of 6 replicates; controls 0 of 18). The variant T28S G61A A101Q S107N [GPLM_Gibbs] gave 4.5 nM (6 of 6 replicates; controls 0 of 18).

With G26P T28D G61H A101T [GP_Gen] the result was 8.2 nM (3 of 6 replicates; controls 1 of 18). With T28L G61A A101T [GPLM_Gen] the result was 1.7 nM (6 of 6 replicates; controls 0 of 18). For T28N F59Y D62N [Ctrl], the assay gave 100 nM (3 of 6 replicates; controls 0 of 18). With T28E R56Q G61V A101T [GP_Gen] the result was 5.0 nM (1 of 6 replicates; controls 0 of 18). For T28S G61A S63D R100Q [GPLM_Gen], the assay gave 1.6 nM (6 of 6 replicates; controls 0 of 18). For F27D S31E Y60S G61T A101F [Rand], the assay gave no signal (0 of 6 replicates; controls 0 of 18). The variant G26L S53A A101I S107I [Ctrl] showed 67 nM (2 of 6 replicates; controls 0 of 18). The variant S31Q G61S A101T S107T [GP_HC] showed 330 pM (6 of 6 replicates; controls 1 of 18).

The variant T28D S31M R100K A101T [GP_Gen] gave 2.2 nM (6 of 6 replicates; controls 1 of 18). With T28W S31E R100Q S107L [GPLM_Gen] the result was 150 nM (5 of 6 replicates; controls 0 of 18). For T28Y S31E A101N [GP_Gen], the assay gave 2.4 nM (1 of 6 replicates; controls 0 of 18). The variant S31E D62E A101T [GPLM_Gen] gave 790 pM (3 of 6 replicates; controls 0 of 18). The variant T28H S31D R100Q [Ctrl] gave 14 nM (5 of 6 replicates; controls 0 of 18). For T28Q S31E G61Q A101N [GP_Gibbs], the assay gave 33 nM (6 of 6 replicates; controls 0 of 18). With S31D S53A D106N [Ctrl] the result was 1.1 nM (6 of 6 replicates; controls 0 of 18). For R56K Y60M G61Q [Ctrl], the assay gave 68 nM (3 of 6 replicates; controls 1 of 18).

The variant T28S R100K S107W [GPLM_Gen] gave no signal (0 of 6 replicates; controls 1 of 18). With F27W N30G S31E T58G G61T A101F [Rand] the result was 110 nM (3 of 6 replicates; controls 0 of 18). The variant S31Q G61S D62R T104F S107K [Rand] showed no signal (0 of 6 replicates; controls 0 of 18). For R100Y A101P D106I [Ctrl], the assay gave no signal (0 of 6 replicates; controls 0 of 18). The variant T28S R100T A101T [GPLM_Gen] gave 2.7 nM (6 of 6 replicates; controls 0 of 18). For T28S S53R G61E S63F S107P [Ctrl], the assay gave no signal (0 of 6 replicates; controls 0 of 18). The variant R100F G103L D106F [Ctrl] gave no signal (0 of 6 replicates; controls 0 of 18). With G61A G99D S107D [Ctrl] the result was no signal (0 of 6 replicates; controls 0 of 18).

For N30E G61A S63D R100Q [GP_Gen], the assay gave 14 nM (6 of 6 replicates; controls 0 of 18). For F59A G61H A101L [Ctrl], the assay gave 8.2 nM (6 of 6 replicates; controls 1 of 18). With S31E R56Q A101T D106I [GP_HC] the result was no signal (0 of 6 replicates; controls 0 of 18).

Picked from the list: the 7 lowest averages where every replicate gave a value.

With S31Q G61S A101T S107T [GP_HC] the result was 330 pM (6 of 6 replicates; controls 1 of 18).
With S31D S53A D106N [Ctrl] the result was 1.1 nM (6 of 6 replicates; controls 0 of 18).
With T28D R56K A101T S107E [GP_Gen] the result was 1.3 nM (6 of 6 replicates; controls 1 of 18).
With T28S G61A S63D R100Q [GPLM_Gen] the result was 1.6 nM (6 of 6 replicates; controls 0 of 18).
With T28L G61A A101T [GPLM_Gen] the result was 1.7 nM (6 of 6 replicates; controls 0 of 18).
With T28Q S31E G61D [GP_HC] the result was 1.9 nM (6 of 6 replicates; controls 0 of 18).
With T28D S31M R100K A101T [GP_Gen] the result was 2.2 nM (6 of 6 replicates; controls 1 of 18).

The parent sequence was in this pool as ten entries: three were never detected, three once, and four in most replicates, with averages from 2.2 nM to 240 nM.
In the paper, a design with two or fewer of six values counts as a poor binder.
Three control strains display no target. For all heavy chain designs, 1% of the pairings with them gave a signal, with a median of 120 nM and one signal in twenty below 7.0 nM, so weak values seen in few replicates may be background. For each scFv, signals with the empty controls are counted beside the result.

The measurements come from Li et al. 2023 (doi:10.1038/s41467-023-39022-2) through the FLAb antibody collection.